The numbers were not newly measured in paper PMC11423305, “Structure-Based Design of CBP/EP300 Degraders: When Cooperativity Overcomes Affinity” (JACS Au, 2024), which cites them from elsewhere.

Sequences of proteins named here, by UniProt entry; tags and fusion partners are left off.
UniProt Q92793, whole entry: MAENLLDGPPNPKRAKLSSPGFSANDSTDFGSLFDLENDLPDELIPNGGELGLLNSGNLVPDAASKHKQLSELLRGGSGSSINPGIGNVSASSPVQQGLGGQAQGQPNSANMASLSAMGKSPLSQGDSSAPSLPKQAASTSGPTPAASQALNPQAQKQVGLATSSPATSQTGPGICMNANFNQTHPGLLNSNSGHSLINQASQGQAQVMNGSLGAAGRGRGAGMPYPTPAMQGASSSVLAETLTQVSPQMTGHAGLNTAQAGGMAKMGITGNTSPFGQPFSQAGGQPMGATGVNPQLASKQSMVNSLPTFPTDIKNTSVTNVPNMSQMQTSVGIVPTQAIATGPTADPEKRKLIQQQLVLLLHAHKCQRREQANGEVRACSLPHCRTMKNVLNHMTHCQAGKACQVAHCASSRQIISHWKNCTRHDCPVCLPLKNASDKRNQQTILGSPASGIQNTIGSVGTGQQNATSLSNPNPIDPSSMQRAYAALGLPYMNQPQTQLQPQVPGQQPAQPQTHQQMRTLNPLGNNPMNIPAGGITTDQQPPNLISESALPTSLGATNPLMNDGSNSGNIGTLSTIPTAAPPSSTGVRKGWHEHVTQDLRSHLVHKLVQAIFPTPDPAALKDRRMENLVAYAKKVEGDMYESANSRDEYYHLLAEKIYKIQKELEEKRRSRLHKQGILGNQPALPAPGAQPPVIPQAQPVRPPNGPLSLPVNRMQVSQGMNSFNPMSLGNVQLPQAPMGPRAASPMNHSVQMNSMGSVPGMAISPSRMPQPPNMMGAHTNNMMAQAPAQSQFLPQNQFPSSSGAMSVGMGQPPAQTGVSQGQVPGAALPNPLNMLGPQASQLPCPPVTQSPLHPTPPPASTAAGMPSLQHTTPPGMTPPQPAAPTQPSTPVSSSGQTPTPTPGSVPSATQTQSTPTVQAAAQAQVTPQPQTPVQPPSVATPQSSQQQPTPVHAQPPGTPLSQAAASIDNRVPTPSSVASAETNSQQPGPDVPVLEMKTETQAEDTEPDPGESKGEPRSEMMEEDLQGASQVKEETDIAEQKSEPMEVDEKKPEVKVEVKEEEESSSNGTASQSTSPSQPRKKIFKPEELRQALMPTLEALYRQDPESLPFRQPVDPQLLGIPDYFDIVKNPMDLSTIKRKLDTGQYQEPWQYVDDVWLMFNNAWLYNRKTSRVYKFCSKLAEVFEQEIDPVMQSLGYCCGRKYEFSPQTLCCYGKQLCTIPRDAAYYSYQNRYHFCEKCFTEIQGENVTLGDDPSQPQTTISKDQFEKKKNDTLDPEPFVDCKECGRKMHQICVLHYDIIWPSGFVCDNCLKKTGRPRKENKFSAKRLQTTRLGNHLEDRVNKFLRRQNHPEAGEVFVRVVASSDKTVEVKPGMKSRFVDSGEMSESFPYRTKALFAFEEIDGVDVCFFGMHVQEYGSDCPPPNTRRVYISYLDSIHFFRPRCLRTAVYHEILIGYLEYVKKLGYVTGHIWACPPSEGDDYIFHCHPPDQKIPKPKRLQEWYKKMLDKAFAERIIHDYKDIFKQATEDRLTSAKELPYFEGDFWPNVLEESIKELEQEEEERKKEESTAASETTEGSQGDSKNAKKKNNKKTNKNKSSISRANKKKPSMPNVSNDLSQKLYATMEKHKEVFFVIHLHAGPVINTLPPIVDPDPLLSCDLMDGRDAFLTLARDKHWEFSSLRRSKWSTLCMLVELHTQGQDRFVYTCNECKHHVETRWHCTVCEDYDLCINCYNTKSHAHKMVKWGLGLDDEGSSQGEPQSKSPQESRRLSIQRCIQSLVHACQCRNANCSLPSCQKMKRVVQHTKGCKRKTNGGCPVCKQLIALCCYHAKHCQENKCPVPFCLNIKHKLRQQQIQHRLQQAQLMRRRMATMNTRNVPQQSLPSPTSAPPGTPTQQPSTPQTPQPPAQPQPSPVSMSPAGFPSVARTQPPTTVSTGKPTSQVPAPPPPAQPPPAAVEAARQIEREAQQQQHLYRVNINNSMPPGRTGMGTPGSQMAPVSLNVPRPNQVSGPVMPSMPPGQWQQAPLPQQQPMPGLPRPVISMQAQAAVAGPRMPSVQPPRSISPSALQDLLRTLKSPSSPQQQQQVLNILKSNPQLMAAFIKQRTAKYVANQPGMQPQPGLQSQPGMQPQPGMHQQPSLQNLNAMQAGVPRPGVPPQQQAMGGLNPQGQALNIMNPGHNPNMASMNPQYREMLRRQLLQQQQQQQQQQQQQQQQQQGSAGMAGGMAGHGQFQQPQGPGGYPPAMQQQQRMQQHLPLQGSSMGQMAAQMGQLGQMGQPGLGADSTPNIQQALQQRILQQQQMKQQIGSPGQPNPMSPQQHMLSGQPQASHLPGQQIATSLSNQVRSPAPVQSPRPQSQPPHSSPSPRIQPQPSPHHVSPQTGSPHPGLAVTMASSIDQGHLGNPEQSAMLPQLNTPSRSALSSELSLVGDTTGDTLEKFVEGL

The target in the data set is CBP (Homo sapiens, UniProt Q92793). The following applies: CBP/EP300 degradation; ref 1 (Vannam et al., 2021); cited from earlier work.

For the compound `CNC(=O)N1CCc2c(c(N3CCCc4cc(-c5cnn(C)c5)c(C(F)F)cc43)nn2C2CCN(C(=O)CCOCCOCCOCCOCCNc3ccc4c(c3)C(=O)N(C3CCC(=O)NC3=O)C4=O)CC2)C1` (stereo not shown), the “time at which Dmax is reached” value was 2 to 3 h.
